According to article PMC10502087, “Fatty acid binding proteins are novel modulators of synaptic epoxyeicosatrienoic acid signaling in the brain” (Scientific Reports, 2023):

Test system: CA1 pyramidal neuron glutamate synapses
Test: Ex vivo whole-cell recordings of evoked EPSCs in hippocampal slices
Conditions: inhibitor 10 µM with TPPU 10 µM

COc1ccccc1[C@H]1[C@H](C(=O)O)[C@H](c2ccccc2OC)[C@H]1C(=O)Oc1ccccc1-c1ccccc1 (relative stereo)
Effect on TPPU-induced depression of eEPSCs: completely abolished
Effect on TPPU-induced potentiation of eEPSCs: reduced
